According to patent US20230057987A1 (published 2023):

T1: NYESO1-001, irrelevant control peptide peptide on HLA-A*02:01 (human)
T1 peptide: SLLMWITQV

B1: TCR-10 (TCR, V domains shown)
Valpha: QNIDQPTEMTATEGAIVQINCTYQTSGFNGLFWYQQHAGEAPTFLSYNVLDGLEEKGRFSSFLSRSKGYSYLLLKELQMKDSASYLCAVPAPYTGTASKLTFGTGTRLQVTL
Vbeta: GVTQTPKFQVLKTGQSMTLQCAQDMNHNSMYWYRQDPGMGLRLIYYSASEGTTDKGEVPNGYNVSRLNKREFSLRLESAAPSQTSVYFCASSEGYSTYNEQFFGPGTRLTVL
B2: TCR-12 (TCR, V domains shown)
Valpha: QLLEQSPQFLSIQEGENLTVYCNSSSVFSSLQWYRQEPGEGPVLLVTVVTGGEVKKLKRLTFQFGDARKDSSLHITAAQPGDTGLYLCAGGLSDSYDKVIFGPGTSLSVIP
Vbeta: EVTQTPKHLVMGMTNKKSLKCEQHMGHRAMYWYKQKAKKPPELMFVYSYEKLSINESVPSRFSPECPNSSLLNLHLHALQPEDSALYLCASSQGVGQEYGYTFGSGTRLTVV
B3: TCR-3 (TCR, V domains shown)
Valpha: QKITQTQPGMFVQEKEAVTLDCTYDTSDQSYGLFWYKQPSSGEMIFLIYQGSYDEQNATEGRYSLNFQKARKSANLVISASQLGDSAMYFCGYSNYQLIWGAGTKLIIKP
Vbeta: QVTQNPRYLITVTGKKLTVTCSQNMNHEYMSWYRQDPGLGLRQIYYSMNVEVTDKGDVPEGYKVSRKEKRNFPLILESPSPNQTSLYFCASREGTGGYQPQHFGDGTRLSIL
B4: TCR-5 (TCR, V domains shown)
Valpha: QQLNQSPQSMFIQEGEDVSMNCTSSSIFNTWLWYKQDPGEGPVLLIALYKAGELTSNGRLTAQFGITRKDSFLNISASIPSDVGIYFCAGGYNYGQNFVFGPGTRLSVLP
Vbeta: GVTQTPKHLITATGQRVTLRCSPRSGDLSVYWYQQSLDQGLQFLIQYYNGEERAKGNILERFSAQQFPDLHSELNLSSLELGDSALYFCASSAGLAGGYEQYFGPGTRLTVT
B5: TCR-6 (TCR, V domains shown)
Valpha: QKEVEQDPGPLSVPEGAIVSLNCTYSNSAFQYFMWYRQYSRKGPELLMYTYSSGNKEDGRFTAQVDKSSKYISLFIRDSQPSDSATYLCAMSGNSGARDYGNNRLAFGKGNQVVVIP
Vbeta: EVTQTPKHLVMGMTNKKSLKCEQHMGHRAMYWYKQKAKKPPELMFVYSYEKLSINESVPSRFSPECPNSSLLNLHLHALQPEDSALYLCASATWEEAGPYNEQFFGPGTRLTVL
B6: TCR-7 (TCR, V domains shown)
Valpha: QTVTQSQPEMSVQEAETVTLSCTYDTSESDYYLFWYKQPPSRQMILVIRQEAYKQQNATENRFSVNFQKAAKSFSLKISDSQLGDAAMYFCTFRYGGATNKLIFGTGTLLAVQP
Vbeta: GVIQSPRHLIKEKRETATLKCYPIPRHDTVYWYQQGPGQDPQFLISFYEKMQSDKGSIPDRFSAQQFSDYHSELNMSSLELGDSALYFCASRGGWAETPDTQYFGPGTRLTVL
B7: TCR-1 (TCR, V domains shown)
Valpha: QTVTQSQPEMSVQEAETVTLSCTYDTSENNYYLFWYKQPPSRQMILVIRQEAYKQQNATENRFSVNFQKAAKSFSLKISDSQLGDTAMYFCAPLGLVAGSARQLTFGSGTQLTVLP
Vbeta: GVSQDPRHKITKRGQNVTFRCDPISEHNRLYWYRQTLGQGPEFLTYFQNEAQLEKSRLLSDRFSAERPKGSFSTLEIQRTEQGDSAMYLCASSTDITSYEQYFGPGTRLTVT
B8: TCR-14 (TCR, V domains shown)
Valpha: QKITQTQPGMFVQEKEAVTLDCTYDTSDQSYGLFWYKQPSSGEMIFLIYQGSYDEQNATEGRYSLNFQKARKSANLVISASQLGDSAMYFCAINGLPGSARQLTFGSGTQLTVLP
Vbeta: GVAQSPRYKIIEKRQSVAFWCNPISGHATLYWYQQILGQGPKLLIQFQNNGVVDDSQLPKDRFSAERLKGVDSTLKIQPAKLEDSAVYLCASSRFVATGTSPLHFGNGTRLTVT
B9: TCR-11 (TCR, V domains shown)
Valpha: IQVEQSPPDLILQEGANSTLRCNFSDSVNNLQWFHQNPWGQLINLFYIPSGTKQNGRLSATTVATERYSLLYISSSQTTDSGVYFCAVNTGTASKLTFGTGTRLQVTL
Vbeta: GVTQTPKFQVLKTGQSMTLQCAQDMNHNSMYWYRQDPGMGLRLIYYSASEGTTDKGEVPNGYNVSRLNKREFSLRLESAAPSQTSVYFCASSPRGQGRSYEQYFGPGTRLTVT
B10: TCR-8 (TCR, V domains shown)
Valpha: QKVTQAQTEISVVEKEDVTLDCVYETRDTTYYLFWYKQPPSGELVFLIRRNSFDEQNEISGRYSWNFQKSTSSFNFTITASQVVDSAVYFCALSGRGSGTYKYIFGTGTRLKVLA
Vbeta: GVIQSPRHLIKEKRETATLKCYPIPRHDTVYWYQQGPGQDPQFLISFYEKMQSDKGSIPDRFSAQQFSDYHSELNMSSLELGDSALYFCASSAGTSYNEQFFGPGTRLTVL
B11: TCR-13 (TCR, V domains shown)
Valpha: QKITQTQPGMFVQEKEAVTLDCTYDTSDQSYGLFWYKQPSSGEMIFLIYQGSYDEQNATEGRYSLNFQKARKSANLVISASQLGDSAMYFCAMSDPIMDTGRRALTFGSGTRLQVQP
Vbeta: GITQSPKYLFRKEGQNVTLSCEQNLNHDAMYWYRQDPGQGLRLIYYSQIVNDFQKGDIAEGYSVSREKKESFPLTVTSAQKNPTAFYLCASKSRGPNLADTQYFGPGTRLTVL
B12: TCR-4 (TCR, V domains shown)
Valpha: QSVAQPEDQVNVAEGNPLTVKCTYSVSGNPYLFWYVQYPNRGLQFLLKYITGDNLVKGSYGFEAEFNKSQTSFHLKKPSALVSDSALYFCAAPRDDKIIFGKGTRLHILP
Vbeta: GVTQTPKFRVLKTGQSMTLLCAQDMNHEYMYWYRQDPGMGLRLIHYSVGEGTTAKGEVPDGYNVSRLKKQNFLLGLESAAPSQTSVYFCASSYLRTGGNEQFFGPGTRLTVL
B13: TCR-2 (TCR, V domains shown)
Valpha: QKITQTQPGMFVQEKEAVTLDCTYDTSDQSYGLFWYKQPSSGEMIFLIYQGSYDEQNATEGRYSLNFQKARKSANLVISASQLGDSAMYFCAMREGSDAGGTSYGKLTFGQGTILTVHP
Vbeta: GVIQSPRHLIKEKRETATLKCYPIPRHDTVYWYQQGPGQDPQFLISFYEKMQSDKGSIPDRFSAQQFSDYHSELNMSSLELGDSALYFCASSPSTGRLNTEAFFGQGTRLTVV
B14: TCR-9 (TCR, V domains shown)
Valpha: EDVEQSLFLSVREGDSSVINCTYTDSSSTYLYWYKQEPGAGLQLLTYIFSNMDMKQDQRLTVLLNKKDKHLSLRIADTQTGDSAIYFCAEKETAGNKLTFGGGTRVLVKP
Vbeta: EPEVTQTPSHQVTQMGQEVILRCVPISNHLYFYWYRQILGQKVEFLVSFYNNEISEKSEIFDDQFSVERPDGSNFTLKIRSTKLEDSAMYFCASTVQSPRTNEQFFGPGTRLTVL
B15: TCR-15 (TCR, V domains shown)
Valpha: KQEVTQIPAALSVPEGENLVLNCSFTDSAIYNLQWFRQDPGKGLTSLLLIQSSQREQTSGRLNASLDKSSGRSTLYIAASQPGDSATYLCAVLLTGKLIFGQGTTLQVKP
Vbeta: GVTQTPRYLIKTRGQQVTLSCSPISGHRSVSWYQQTPGQGLQFLFEYFSETQRNKGNFPGRFSGRQFSNSRSEMNVSTLELGDSALYLCASSGGPGPSGEQYFGPGTRLTVT

Target: T1, NYESO1-001, irrelevant control peptide …
Assay: killing

Binder	binding result
B1	no recognition
B2	no recognition
B3	no recognition
B4	no recognition
B5	no recognition
B6	no recognition
B7	no recognition
B8	no recognition
B9	no recognition
B10	no recognition
B11	no recognition
B12	no recognition
B13	no recognition
B14	no recognition
B15	no recognition
